Earlier results, collected in patent US20260001922A1, “PEPTIDES TARGETING SODIUM CHANNELS TO TREAT PAIN” (priority 2022, published 2026).

By UniProt entry, the sequences of proteins in these tests, tags left out.
UniProt P35499, whole entry: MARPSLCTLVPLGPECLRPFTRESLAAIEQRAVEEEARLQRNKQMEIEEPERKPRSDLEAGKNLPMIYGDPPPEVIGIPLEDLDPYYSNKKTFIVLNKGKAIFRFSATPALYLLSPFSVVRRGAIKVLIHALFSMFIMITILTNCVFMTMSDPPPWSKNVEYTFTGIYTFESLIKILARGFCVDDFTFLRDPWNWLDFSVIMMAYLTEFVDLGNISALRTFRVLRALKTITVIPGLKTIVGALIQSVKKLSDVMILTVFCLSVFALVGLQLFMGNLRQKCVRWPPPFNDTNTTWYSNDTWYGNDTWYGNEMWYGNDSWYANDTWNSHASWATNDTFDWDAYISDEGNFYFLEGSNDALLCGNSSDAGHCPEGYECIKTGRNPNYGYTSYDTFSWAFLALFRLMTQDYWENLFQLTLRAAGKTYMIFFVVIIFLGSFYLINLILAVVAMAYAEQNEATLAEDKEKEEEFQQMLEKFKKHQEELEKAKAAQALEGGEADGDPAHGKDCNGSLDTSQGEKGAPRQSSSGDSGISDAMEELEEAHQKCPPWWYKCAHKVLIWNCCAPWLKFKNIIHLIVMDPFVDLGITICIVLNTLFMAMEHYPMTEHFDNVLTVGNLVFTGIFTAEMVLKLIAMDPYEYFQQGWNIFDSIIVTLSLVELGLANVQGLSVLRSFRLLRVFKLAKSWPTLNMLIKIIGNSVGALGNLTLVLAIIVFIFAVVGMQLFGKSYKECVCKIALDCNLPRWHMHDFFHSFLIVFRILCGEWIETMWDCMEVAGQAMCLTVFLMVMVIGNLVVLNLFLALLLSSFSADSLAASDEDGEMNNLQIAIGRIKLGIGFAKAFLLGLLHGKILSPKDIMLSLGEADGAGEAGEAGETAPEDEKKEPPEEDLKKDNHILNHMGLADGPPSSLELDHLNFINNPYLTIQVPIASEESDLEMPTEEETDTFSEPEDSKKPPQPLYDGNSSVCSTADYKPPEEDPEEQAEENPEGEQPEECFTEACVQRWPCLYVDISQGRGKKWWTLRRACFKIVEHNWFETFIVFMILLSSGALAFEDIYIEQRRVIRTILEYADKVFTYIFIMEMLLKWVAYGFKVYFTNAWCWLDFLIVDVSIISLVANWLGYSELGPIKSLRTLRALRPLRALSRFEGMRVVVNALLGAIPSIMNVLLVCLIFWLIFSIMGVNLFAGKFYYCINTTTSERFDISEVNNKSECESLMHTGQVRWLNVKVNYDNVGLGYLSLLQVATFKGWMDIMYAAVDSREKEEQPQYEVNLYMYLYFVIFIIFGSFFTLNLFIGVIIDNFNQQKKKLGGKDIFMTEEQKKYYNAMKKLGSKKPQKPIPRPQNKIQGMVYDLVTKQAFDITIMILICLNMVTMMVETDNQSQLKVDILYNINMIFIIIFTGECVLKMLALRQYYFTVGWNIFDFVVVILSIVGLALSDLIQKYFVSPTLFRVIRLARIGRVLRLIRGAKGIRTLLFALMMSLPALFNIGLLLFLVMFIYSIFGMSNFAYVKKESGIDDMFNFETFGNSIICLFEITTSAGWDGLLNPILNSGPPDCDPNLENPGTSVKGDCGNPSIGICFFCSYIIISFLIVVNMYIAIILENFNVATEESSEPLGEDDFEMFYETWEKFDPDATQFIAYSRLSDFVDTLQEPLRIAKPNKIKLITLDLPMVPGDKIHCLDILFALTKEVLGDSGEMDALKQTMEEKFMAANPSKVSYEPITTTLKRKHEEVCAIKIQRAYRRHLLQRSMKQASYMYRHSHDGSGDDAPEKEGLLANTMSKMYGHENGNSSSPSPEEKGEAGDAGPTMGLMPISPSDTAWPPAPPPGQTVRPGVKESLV
UniProt Q14524, whole entry: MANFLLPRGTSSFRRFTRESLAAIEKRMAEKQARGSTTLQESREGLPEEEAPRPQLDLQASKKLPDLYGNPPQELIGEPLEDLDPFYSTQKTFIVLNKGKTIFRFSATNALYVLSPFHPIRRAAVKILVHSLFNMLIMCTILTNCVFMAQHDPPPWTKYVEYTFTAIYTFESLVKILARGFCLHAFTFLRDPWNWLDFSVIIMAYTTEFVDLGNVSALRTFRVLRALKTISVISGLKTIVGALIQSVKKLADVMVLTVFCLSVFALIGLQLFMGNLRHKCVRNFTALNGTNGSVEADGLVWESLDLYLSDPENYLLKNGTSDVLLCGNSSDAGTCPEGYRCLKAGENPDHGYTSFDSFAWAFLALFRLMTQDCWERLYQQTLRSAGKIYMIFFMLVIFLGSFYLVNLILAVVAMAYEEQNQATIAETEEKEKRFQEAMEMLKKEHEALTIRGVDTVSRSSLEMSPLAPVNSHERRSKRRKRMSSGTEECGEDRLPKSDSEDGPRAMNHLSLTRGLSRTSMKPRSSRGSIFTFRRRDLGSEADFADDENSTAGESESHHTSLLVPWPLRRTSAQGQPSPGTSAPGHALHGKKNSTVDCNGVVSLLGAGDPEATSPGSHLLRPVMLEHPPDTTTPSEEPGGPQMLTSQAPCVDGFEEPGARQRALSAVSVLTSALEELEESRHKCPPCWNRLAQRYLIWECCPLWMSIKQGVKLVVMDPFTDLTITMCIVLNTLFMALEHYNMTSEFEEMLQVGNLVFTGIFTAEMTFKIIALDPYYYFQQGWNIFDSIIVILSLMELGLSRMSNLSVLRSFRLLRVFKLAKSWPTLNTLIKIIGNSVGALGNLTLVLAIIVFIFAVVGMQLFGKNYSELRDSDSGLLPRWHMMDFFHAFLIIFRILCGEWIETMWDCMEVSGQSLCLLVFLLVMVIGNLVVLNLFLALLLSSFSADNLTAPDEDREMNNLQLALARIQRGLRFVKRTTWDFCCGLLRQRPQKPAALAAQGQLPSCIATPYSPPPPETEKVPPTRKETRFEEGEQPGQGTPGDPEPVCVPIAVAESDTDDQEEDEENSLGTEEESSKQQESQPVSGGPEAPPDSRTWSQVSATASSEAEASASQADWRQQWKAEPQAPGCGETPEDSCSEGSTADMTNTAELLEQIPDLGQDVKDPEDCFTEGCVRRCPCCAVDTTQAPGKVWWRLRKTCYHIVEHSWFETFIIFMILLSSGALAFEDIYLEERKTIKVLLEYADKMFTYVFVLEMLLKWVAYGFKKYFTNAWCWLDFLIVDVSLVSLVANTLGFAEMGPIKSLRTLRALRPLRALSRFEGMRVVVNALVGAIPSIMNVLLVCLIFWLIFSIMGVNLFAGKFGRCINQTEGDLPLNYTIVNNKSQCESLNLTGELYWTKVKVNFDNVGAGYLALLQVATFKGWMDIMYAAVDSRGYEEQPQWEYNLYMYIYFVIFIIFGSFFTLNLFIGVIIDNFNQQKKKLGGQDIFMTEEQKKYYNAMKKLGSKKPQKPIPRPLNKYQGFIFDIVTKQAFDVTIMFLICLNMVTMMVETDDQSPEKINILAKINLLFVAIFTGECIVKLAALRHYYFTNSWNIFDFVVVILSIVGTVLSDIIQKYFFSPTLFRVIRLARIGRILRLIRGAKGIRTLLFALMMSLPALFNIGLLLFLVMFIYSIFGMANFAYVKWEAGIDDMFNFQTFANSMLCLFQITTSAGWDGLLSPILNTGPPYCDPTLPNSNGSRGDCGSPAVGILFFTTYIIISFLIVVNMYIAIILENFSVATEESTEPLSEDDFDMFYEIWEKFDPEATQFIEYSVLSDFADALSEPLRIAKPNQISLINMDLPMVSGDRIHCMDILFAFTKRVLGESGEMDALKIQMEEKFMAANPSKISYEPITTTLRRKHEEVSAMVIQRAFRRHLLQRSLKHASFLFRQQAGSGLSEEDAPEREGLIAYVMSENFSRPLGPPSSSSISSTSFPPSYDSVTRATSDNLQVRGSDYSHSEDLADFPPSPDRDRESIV

What was measured:
hNav1.4 = hNav1.4 (Homo sapiens, UniProt P35499); conditions: cited from earlier work
hNav1.5 = hNav1.5 (Homo sapiens, UniProt Q14524); conditions: cited from earlier work

## DCLGAFRKCIPDNDKCCRPNLVCSRLHRWCKYVF [GpTx-1]
hNav1.4
  Selectivity for hNav1.7 vs hNav1.4: 20 fold
hNav1.5
  Selectivity for hNav1.7 vs hNav1.5: 1,000 fold
